A short description of series [1]: Dissolution time of P-THP dry powder product in aqueous solutions. As to conditions: with dissolution-enhancing and/or stabilizing agent such as arginine.
The nature of series [2]: Stability of P-THP in solution (free THP by HPLC, 488 nm). Type of series: physicochemical. As to conditions: both in arginine buffers and sodium bicarbonate buffers. The text has this: Sample: […] Method: […] Then, the decomposition product, i.e. free pirarubicin (THP), was separated by HPLC (High Performance Liquid Chromatography) (column: JSK Gel SW3000, Detection: Absorbance 488 nm, Elution: a mixed solution of 80% methanol and 20% 0.1 M sodium acetate at pH 7.0) and quantified by absorbance at 488 nm.

Take “polyhydroxypropylmethacrylamide (HPMA)-bound THP [P-THP]”: in series [1], the water-solubility result was “greatly improved”. Besides, the “pH of best stability” value in series [2] is given as ~8.5.
